Laboratory results from patent publication EP1903056A2, “HLA-A1, -A2 -A3, -A24, -B7, and -B44 tumor associated antigen peptides and compositions” (priority 2002, dated 2004).

biological target: HLA-A*0101 (Homo sapiens, UniProt P04439, A114D/A174V/A182V/D101N/D185E/E176A/E190D/L180R/Q94H/R68K/S129P/T187R/V100A/V91M/W191G); assay: Class I peptide-binding assay, A*0101; conditions: A*[…], Table 18a, CEA-derived A1 binders

| IC50 [nM] | SMILES |
| --- | --- |
| 2690 | C[C@H](NC(=O)[C@H](C)NC(=O)[C@@H](N)Cc1c[nH]cn1)C(=O)N[C@@H](CO)C(=O)N[C@@H](CC(N)=O)C(=O)N1CCC[C@H]1C(=O)N1CCC[C@H]1C(=O)N[C@@H](C)C(=O)N[C@@H](CCC(N)=O)C(=O)N[C@@H](Cc1ccc(O)cc1)C(=O)O [compound 177] |
| 74 | C[C@H](NC(=O)[C@H](CO)NC(=O)[C@@H](N)Cc1c[nH]cn1)C(=O)N[C@@H](CO)C(=O)N[C@@H](CC(N)=O)C(=O)N1CCC[C@H]1C(=O)N[C@@H](CO)C(=O)N1CCC[C@H]1C(=O)N[C@@H](CCC(N)=O)C(=O)N[C@@H](Cc1ccc(O)cc1)C(=O)O [compound 182] |

Second part, the molecule before the results:

| SMILES | IC50 [nM] |
| --- | --- |
| C[C@H](NC(=O)[C@H](CCC(N)=O)NC(=O)[C@@H](N)CCC(N)=O)C(=O)N[C@H](C(=O)N1CCC[C@H]1C(=O)NCC(=O)N1CCC[C@H]1C(=O)N[C@@H](C)C(=O)N[C@@H](Cc1ccc(O)cc1)C(=O)O)[C@@H](C)O [compound 159] | 10000 |
| CC(C)C[C@H](NC(=O)[C@@H]1CCCN1C(=O)[C@H](CO)NC(=O)[C@H](CC(=O)O)NC(=O)[C@@H](NC(=O)[C@@H]1CCCN1)[C@@H](C)O)C(=O)N[C@@H](CC(N)=O)C(=O)N[C@H](C(=O)N[C@@H](CO)C(=O)N[C@@H](Cc1ccc(O)cc1)C(=O)O)[C@@H](C)O [compound 163] | 266 |
| C[C@H](N)C(=O)N[C@@H](C)C(=O)N[C@@H](CO)C(=O)N[C@@H](CC(N)=O)C(=O)N1CCC[C@H]1C(=O)N1CCC[C@H]1C(=O)N[C@@H](C)C(=O)N[C@@H](CCC(N)=O)C(=O)N[C@@H](Cc1ccc(O)cc1)C(=O)O [compound 164] | 10000 |
| CC(C)[C@H](N)C(=O)N[C@H](C(=O)N[C@@H](CCCNC(=N)N)C(=O)N[C@@H](CC(N)=O)C(=O)N[C@@H](CC(=O)O)C(=O)N[C@H](C(=O)NCC(=O)N1CCC[C@H]1C(=O)N[C@@H](Cc1ccc(O)cc1)C(=O)O)C(C)C)[C@@H](C)O [compound 168] | 10000 |
| CC(C)[C@H](N)C(=O)N[C@H](C(=O)N[C@@H](CC(=O)O)C(=O)N[C@@H](CC(N)=O)C(=O)N[C@@H](CC(=O)O)C(=O)N[C@H](C(=O)NCC(=O)N1CCC[C@H]1C(=O)N[C@@H](Cc1ccc(O)cc1)C(=O)O)C(C)C)[C@@H](C)O [compound 169] | 4.1 |
| CC[C@H](C)[C@H](NC(=O)[C@@H](NC(=O)[C@@H]1CCCN1)[C@@H](C)O)C(=O)N[C@@H](CO)C(=O)N1CCC[C@H]1C(=O)N[C@@H](CO)C(=O)N[C@@H](Cc1ccc(O)cc1)C(=O)N[C@H](C(=O)N[C@@H](Cc1ccc(O)cc1)C(=O)N[C@@H](Cc1ccc(O)cc1)C(=O)O)[C@@H](C)O [compound 171] | 325 |
| C[C@@H](O)[C@H](NC(=O)[C@H](Cc1ccc(O)cc1)NC(=O)[C@H](CO)NC(=O)[C@@H]1CCCN1C(=O)[C@H](CO)NC(=O)[C@H](CC(=O)O)NC(=O)[C@@H](NC(=O)[C@@H]1CCCN1)[C@@H](C)O)C(=O)N[C@@H](Cc1ccc(O)cc1)C(=O)N[C@@H](Cc1ccc(O)cc1)C(=O)O [compound 172] | 1.1 |
| C[C@@H](O)[C@H](NC(=O)[C@H](Cc1ccc(O)cc1)NC(=O)[C@H](CO)NC(=O)[C@@H]1CCCN1C(=O)[C@H](CO)NC(=O)[C@H](CC(=O)O)NC(=O)[C@@H](NC(=O)[C@@H]1CCCN1)[C@@H](C)O)C(=O)N[C@@H](Cc1ccc(O)cc1)C(=O)O [compound 174] | 38 |
| CC[C@H](C)[C@H](NC(=O)[C@@H](N)[C@@H](C)O)C(=O)N[C@@H](CO)C(=O)N1CCC[C@H]1C(=O)N[C@@H](CO)C(=O)N[C@@H](Cc1ccc(O)cc1)C(=O)N[C@H](C(=O)N[C@@H](Cc1ccc(O)cc1)C(=O)N[C@@H](Cc1ccc(O)cc1)C(=O)O)[C@@H](C)O [compound 175] | 1040 |
| CC[C@H](C)[C@H](NC(=O)[C@@H](N)[C@@H](C)O)C(=O)N[C@@H](CC(=O)O)C(=O)N1CCC[C@H]1C(=O)N[C@@H](CO)C(=O)N[C@@H](Cc1ccc(O)cc1)C(=O)N[C@H](C(=O)N[C@@H](Cc1ccc(O)cc1)C(=O)N[C@@H](Cc1ccc(O)cc1)C(=O)O)[C@@H](C)O [compound 176] | 3.1 |

same assay, conditions: A*[…], Table 18b, Her2/neu-derived A1 binders

| IC50 [nM] | SMILES |
| --- | --- |
| 1670 | CC(C)C[C@H](NC(=O)[C@@H]1CCCN1C(=O)[C@H](CO)NC(=O)[C@H](C)NC(=O)[C@@H]1CCCN1)C(=O)N[C@@H](CC(=O)O)C(=O)N[C@@H](CO)C(=O)N[C@H](C(=O)N[C@@H](Cc1ccccc1)C(=O)N[C@@H](Cc1ccc(O)cc1)C(=O)O)[C@@H](C)O [compound 193] |
| 862 | CC(C)C[C@H](NC(=O)[C@@H]1CCCN1C(=O)[C@H](CO)NC(=O)[C@H](C)N)C(=O)N[C@@H](CC(=O)O)C(=O)N[C@@H](CO)C(=O)N[C@H](C(=O)N[C@@H](Cc1ccccc1)C(=O)N[C@@H](Cc1ccc(O)cc1)C(=O)O)[C@@H](C)O [compound 195] |
| 2080 | CSCC[C@H](N)C(=O)NCC(=O)N[C@@H](CC(=O)O)C(=O)N[C@@H](CC(C)C)C(=O)N[C@H](C(=O)N[C@@H](CC(=O)O)C(=O)N[C@@H](C)C(=O)N[C@@H](CCC(=O)O)C(=O)N[C@@H](CCC(=O)O)C(=O)N[C@@H](Cc1ccc(O)cc1)C(=O)O)C(C)C [compound 197] |
| 581 | CC(C)C[C@H](NC(=O)[C@H](CC(N)=O)NC(=O)[C@H](CC(=O)O)NC(=O)[C@H](Cc1ccccc1)NC(=O)[C@H](C)NC(=O)[C@@H]1CCCN1C(=O)[C@H](CO)NC(=O)[C@@H](N)Cc1ccccc1)C(=O)N[C@@H](Cc1ccc(O)cc1)C(=O)O [compound 203] |

same assay, conditions: A*[…], Table 18c, Mage2/3-derived A1 binders

| IC50 [nM] | SMILES |
| --- | --- |
| 1140 | CC(C)C[C@H](NC(=O)CNC(=O)[C@H](CC(C)C)NC(=O)[C@H](CS)NC(=O)[C@@H](NC(=O)[C@@H](N)C(C)C)[C@@H](C)O)C(=O)N[C@@H](CO)C(=O)N[C@@H](Cc1ccc(O)cc1)C(=O)O [compound 215] |
| 4240 | CC(C)[C@H](NC(=O)[C@H](CO)NC(=O)CN)C(=O)N[C@H](C(=O)NCC(=O)N[C@@H](CC(N)=O)C(=O)N[C@@H](Cc1c[nH]c2ccccc12)C(=O)N[C@@H](CCC(N)=O)C(=O)N[C@@H](Cc1ccc(O)cc1)C(=O)O)C(C)C [compound 227] |

same assay, conditions: binding affinity (IC50) to HLA-A*0101, running text

| IC50 [nM] | SMILES |
| --- | --- |
| ≤ 100 | CSCC[C@H](N)C(=O)N[C@@H](CCC(N)=O)C(=O)N[C@@H](CC(=O)O)C(=O)N[C@@H](CC(C)C)C(=O)N[C@H](C(=O)N[C@@H](CCC(N)=O)C(=O)N[C@@H](CCC(=O)O)C(=O)N[C@@H](CC(N)=O)C(=O)N[C@@H](Cc1ccc(O)cc1)C(=O)O)C(C)C [MAGE2.247] |
| ≤ 100 | CSCC[C@H](NC(=O)[C@@H](NC(=O)[C@@H](NC(=O)[C@@H]1CCCN1C(=O)[C@H](CC(C)C)NC(=O)[C@H](CO)NC(=O)[C@H](CO)NC(=O)[C@H](C)N)[C@@H](C)O)[C@@H](C)O)C(=O)N[C@@H](CC(N)=O)C(=O)N[C@@H](Cc1ccc(O)cc1)C(=O)O [MAGE3.68] |
| ≤ 100 | CC(C)C[C@H](N)C(=O)N[C@H](C(=O)N[C@@H](CCC(N)=O)C(=O)N[C@@H](Cc1c[nH]cn1)C(=O)N[C@@H](Cc1ccccc1)C(=O)N[C@H](C(=O)N[C@@H](CCC(N)=O)C(=O)N[C@@H](CCC(=O)O)C(=O)N[C@@H](CC(N)=O)C(=O)N[C@@H](Cc1ccc(O)cc1)C(=O)O)C(C)C)[C@@H](C)O [MAGE3.246] |

same assay, conditions: read-out: A*[…]; Table 18b, Her2/neu-derived A1 binders

| IC50 [nM] | SMILES |
| --- | --- |
| 74 | CC(C)C[C@H](NC(=O)[C@H](CC(N)=O)NC(=O)[C@H](CC(=O)O)NC(=O)[C@H](Cc1ccccc1)NC(=O)[C@H](CC(=O)O)NC(=O)[C@@H]1CCCN1C(=O)[C@@H](N)CO)C(=O)N[C@@H](Cc1ccc(O)cc1)C(=O)N[C@@H](Cc1ccc(O)cc1)C(=O)O [compound 206] |

same assay, conditions: result in words

| change of HLA-A*0101 binding affinity of analog | SMILES |
| --- | --- |
| significantly improved binding affinity | CC(C)C[C@H](NC(=O)[C@@H]1CCCN1C(=O)[C@@H](NC(=O)[C@H](C)N)[C@@H](C)O)C(=O)N[C@@H](CC(=O)O)C(=O)N[C@@H](CO)C(=O)N[C@H](C(=O)N[C@@H](Cc1ccccc1)C(=O)N[C@@H](Cc1ccc(O)cc1)C(=O)O)[C@@H](C)O [HER2/neu.997T2] |
| significantly improved binding affinity | CC(C)C[C@H](N)C(=O)N[C@H](C(=O)N[C@@H](CC(=O)O)C(=O)N[C@@H](CO)C(=O)N1CCC[C@H]1C(=O)N[C@@H](CCC(N)=O)C(=O)N1CCC[C@H]1C(=O)N[C@@H](CCC(=O)O)C(=O)N[C@@H](Cc1ccc(O)cc1)C(=O)O)[C@@H](C)O [HER2/neu.1131D3] |

biological target: HLA-A*2402 (Homo sapiens, UniProt P04439, D101N/D140Y/D185E/E176V/E190D/F33S/G103R/G107R/I119L/I121M/I306V/K335N/L105A/L180Q/L300P/N151K/N90K/Q86E/Q94H/R106L/R138H/R89G/T104I/T345S/V100E/W191G/Y123F); assay: Class I peptide-binding assay, A*2402; conditions: not given

| increase in HLA-A*2402 binding affinity of analog over wildtype [fold] | SMILES |
| --- | --- |
| > 15 | CC[C@H](C)[C@H](NC(=O)[C@H](Cc1ccc(O)cc1)NC(=O)[C@@H](N)CC(C)C)C(=O)N[C@@H](Cc1ccccc1)C(=O)N[C@@H](C)C(=O)N[C@H](C(=O)N[C@@H](CS)C(=O)N[C@@H](CC(C)C)C(=O)NCC(=O)N[C@@H](Cc1ccccc1)C(=O)O)[C@@H](C)O |

same assay, conditions: binding affinity (IC50) to HLA-A*2402, running text

| IC50 [nM] | SMILES |
| --- | --- |
| ≤ 100 | CC(C)C[C@H](NC(=O)[C@H](CCC(=O)O)NC(=O)[C@H](Cc1c[nH]c2ccccc12)NC(=O)[C@@H](NC(=O)[C@@H](NC(=O)[C@@H](NC(=O)CNC(=O)[C@H](Cc1ccc(O)cc1)NC(=O)[C@@H](N)CO)C(C)C)[C@@H](C)O)C(C)C)C(=O)O |

same assay, conditions: result in words

| change of HLA-A*2402 binding affinity of analog | SMILES |
| --- | --- |
| significantly higher binding affinity | CC[C@H](C)[C@H](NC(=O)[C@H](Cc1ccc(O)cc1)NC(=O)[C@@H](N)CC(C)C)C(=O)N[C@@H](Cc1ccccc1)C(=O)N[C@@H](C)C(=O)N[C@H](C(=O)N[C@@H](CS)C(=O)N[C@@H](CC(C)C)C(=O)NCC(=O)N[C@@H](Cc1ccccc1)C(=O)O)[C@@H](C)O |
| significantly improved binding | CC[C@H](C)[C@H](NC(=O)[C@H](CC(C)C)NC(=O)[C@H](Cc1c[nH]c2ccccc12)NC(=O)[C@H](CO)NC(=O)[C@H](Cc1ccc(O)cc1)NC(=O)[C@@H](N)CCC(N)=O)C(=O)N[C@@H](CC(=O)O)C(=O)NCC(=O)N[C@@H](CC(N)=O)C(=O)N[C@@H](Cc1ccccc1)C(=O)O [CEA.446F10] |
| significantly improved binding | CC(C)C[C@H](NC(=O)[C@H](CC(N)=O)NC(=O)[C@H](C)NC(=O)CNC(=O)[C@H](CO)NC(=O)[C@H](CC(C)C)NC(=O)[C@H](Cc1ccc(O)cc1)NC(=O)[C@@H](N)CO)C(=O)N[C@@H](CC(N)=O)C(=O)N[C@@H](Cc1ccccc1)C(=O)O [CEA.604F10] |
